What all share (assay type): biochemical
In assay [1] the target is MMP-9 (Homo sapiens, UniProt P14780). Description: MMP-9 enzyme inhibition (IC50). The note with it: relative to MMP-13, text.
For assay [2], the target named is T1, MMP-1 (Homo sapiens, UniProt P03956).
T1 sequence (P03956 100-469): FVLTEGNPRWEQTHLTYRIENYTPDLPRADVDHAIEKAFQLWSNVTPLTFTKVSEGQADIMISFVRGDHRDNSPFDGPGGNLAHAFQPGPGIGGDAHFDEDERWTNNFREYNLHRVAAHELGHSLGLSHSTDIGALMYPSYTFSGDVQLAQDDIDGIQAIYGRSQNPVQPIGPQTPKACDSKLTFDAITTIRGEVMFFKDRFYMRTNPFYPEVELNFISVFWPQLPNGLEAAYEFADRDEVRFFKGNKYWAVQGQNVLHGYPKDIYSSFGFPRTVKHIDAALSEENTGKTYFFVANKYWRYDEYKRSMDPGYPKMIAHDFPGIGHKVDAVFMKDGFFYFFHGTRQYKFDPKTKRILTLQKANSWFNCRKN
As to the kind of experiment: MMP-1 enzyme inhibition (IC50).

By UniProt entry, the sequences of proteins in these tests, tags left out. Residues count along the entry.
UniProt P14780, 94-707, species assumed: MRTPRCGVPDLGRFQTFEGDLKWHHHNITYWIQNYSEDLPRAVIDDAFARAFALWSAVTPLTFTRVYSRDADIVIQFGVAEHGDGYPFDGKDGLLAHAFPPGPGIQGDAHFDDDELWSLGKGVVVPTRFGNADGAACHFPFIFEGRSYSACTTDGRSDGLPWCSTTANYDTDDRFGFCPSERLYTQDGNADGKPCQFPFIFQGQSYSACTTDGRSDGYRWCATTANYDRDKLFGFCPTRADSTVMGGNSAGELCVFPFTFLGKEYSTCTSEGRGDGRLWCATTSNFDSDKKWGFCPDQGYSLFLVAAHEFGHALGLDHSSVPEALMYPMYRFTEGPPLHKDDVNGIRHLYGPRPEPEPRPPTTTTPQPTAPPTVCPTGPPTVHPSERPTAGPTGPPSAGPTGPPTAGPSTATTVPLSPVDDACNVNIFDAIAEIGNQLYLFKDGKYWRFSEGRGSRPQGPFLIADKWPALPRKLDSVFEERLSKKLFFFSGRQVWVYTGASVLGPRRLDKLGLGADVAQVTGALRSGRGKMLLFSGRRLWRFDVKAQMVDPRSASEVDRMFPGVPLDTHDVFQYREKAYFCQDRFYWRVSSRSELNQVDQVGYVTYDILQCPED
UniProt P78536, 215-824: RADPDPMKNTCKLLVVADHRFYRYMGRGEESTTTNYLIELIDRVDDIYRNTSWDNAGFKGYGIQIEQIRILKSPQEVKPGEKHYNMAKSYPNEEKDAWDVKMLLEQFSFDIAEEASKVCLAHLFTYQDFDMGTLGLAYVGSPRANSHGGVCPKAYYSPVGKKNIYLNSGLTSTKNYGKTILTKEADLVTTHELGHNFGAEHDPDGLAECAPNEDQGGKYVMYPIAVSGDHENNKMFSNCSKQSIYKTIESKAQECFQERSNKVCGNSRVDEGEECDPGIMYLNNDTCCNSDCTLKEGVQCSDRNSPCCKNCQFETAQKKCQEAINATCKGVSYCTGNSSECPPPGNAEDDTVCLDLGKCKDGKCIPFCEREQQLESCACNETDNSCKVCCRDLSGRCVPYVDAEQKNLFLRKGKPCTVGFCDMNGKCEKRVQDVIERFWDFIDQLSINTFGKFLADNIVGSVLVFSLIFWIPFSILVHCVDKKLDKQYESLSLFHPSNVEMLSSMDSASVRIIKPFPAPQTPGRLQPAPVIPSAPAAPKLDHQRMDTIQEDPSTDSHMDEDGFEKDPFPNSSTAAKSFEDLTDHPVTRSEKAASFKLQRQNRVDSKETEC

Assay [3] deals with TACE (Homo sapiens, UniProt P78536). As to the kind of experiment: TACE enzyme inhibition (IC50).

For `Cc1cc(C)c(N(Cc2ccccc2)S(=O)(=O)c2ccc(OCCNC(=O)c3cc4ccccc4o3)cc2)c(C(=O)NO)c1` [Compound E, Benzofuran-2-carboxylic acid (2-{4-[benzyl-(2-hydroxycarbamoyl-4,6-dimethyl-phenyl)-sulfamoyl]-phenoxy}-ethyl)-amide], the “selectivity against MMP-9” value in assay [1] was determined as 56 fold. Further, the “S-1: selectivity, ratio of MMP-1 IC50 with MMP-13” value in assay [2] (MMP-1 IC50 / MMP-13 IC50) is given as >5800 x. Moreover, the “selectivity against MMP-1” value in assay [2] (relative to MMP-13, text) is recorded as > 5800 fold. Also, in assay [3] (TACE IC50 / MMP-13 IC50), the “S-TACE: selectivity, ratio of TACE IC50 with MMP-13” value is >500 x. For the same molecule, in assay [3] (relative to MMP-13, text), the “selectivity against TACE” value is recorded as > 500 fold.
